From ChEMBL document CHEMBL4425138, “Probing Lipophilic Adamantyl Group as the P1-Ligand for HIV-1 Protease Inhibitors: Design, Synthesis, Protein X-ray Structural Studies, and Biological Evaluation” (J Med Chem, 2016)

System: Human immunodeficiency virus 1
Test: Ratio of IC50 for HIV1 LA1 to Ki for HIV1 protease

| Compound | Ratio |
| --- | --- |
| COc1ccc(S(=O)(=O)N(Cc2ccccc2)C[C@@H](O)[C@H](CC23CC4CC(CC(C4)C2)C3)NC(=O)O[C@H]2CO[C@H]3OCC[C@H]32)cc1 | 36 |
| COc1ccc(S(=O)(=O)N(CC(C)C)C[C@@H](O)[C@H](CC23CC4CC(CC(C4)C2)C3)NC(=O)O[C@H]2CO[C@H]3OCC[C@H]32)cc1 | 67 |
